From patent US6555113B1, “Modulation of cholesteryl ester transfer protein (CETP) activity” (priority 1995, dated 2003) come the findings set out here.

By UniProt entry, the sequences of proteins in these tests, tags left out. Where a name states a change or a piece, a line headed by the entry shows the natural chain unless it says otherwise.
UniProt P11597: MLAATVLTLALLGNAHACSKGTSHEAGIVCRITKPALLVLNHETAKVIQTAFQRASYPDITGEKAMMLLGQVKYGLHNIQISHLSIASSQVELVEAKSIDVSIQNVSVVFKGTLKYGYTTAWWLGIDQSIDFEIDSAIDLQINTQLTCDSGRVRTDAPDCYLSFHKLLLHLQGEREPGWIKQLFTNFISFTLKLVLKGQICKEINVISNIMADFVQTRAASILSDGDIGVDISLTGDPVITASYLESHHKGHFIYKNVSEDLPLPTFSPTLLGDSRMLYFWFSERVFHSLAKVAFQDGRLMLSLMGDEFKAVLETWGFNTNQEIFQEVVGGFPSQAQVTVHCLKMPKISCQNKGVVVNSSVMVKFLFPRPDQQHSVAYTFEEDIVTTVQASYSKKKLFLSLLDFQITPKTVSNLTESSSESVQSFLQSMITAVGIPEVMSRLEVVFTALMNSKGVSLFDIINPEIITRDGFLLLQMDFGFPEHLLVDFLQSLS
UniProt P22687: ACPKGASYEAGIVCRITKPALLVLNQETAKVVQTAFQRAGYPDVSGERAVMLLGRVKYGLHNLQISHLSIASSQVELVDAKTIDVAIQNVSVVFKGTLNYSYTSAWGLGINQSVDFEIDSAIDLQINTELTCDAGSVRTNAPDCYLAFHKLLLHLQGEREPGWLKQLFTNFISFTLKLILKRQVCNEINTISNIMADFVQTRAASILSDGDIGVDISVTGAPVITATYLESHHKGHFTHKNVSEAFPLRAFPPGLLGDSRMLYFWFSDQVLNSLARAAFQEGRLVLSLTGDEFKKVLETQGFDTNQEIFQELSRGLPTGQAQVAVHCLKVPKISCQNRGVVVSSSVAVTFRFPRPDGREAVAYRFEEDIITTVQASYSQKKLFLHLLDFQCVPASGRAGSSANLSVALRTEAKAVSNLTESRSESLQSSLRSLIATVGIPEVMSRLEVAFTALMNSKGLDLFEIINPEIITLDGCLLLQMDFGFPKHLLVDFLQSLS

Experiment [1] deals with T1, recombinant human CETP (Homo sapiens, UniProt P11597). Put plainly: Direct ELISA for titering anti-CETP antibodies in plasma of vaccinated rabbits. The conditions noted are these: rabbits rb#1-#3, 100 μg peptide in RIBI adjuvant Days 1, 28, 56; plasma Day 70.
The target of experiment [2] is T1, recombinant human CETP. In words: Direct ELISA for anti-recombinant human CETP antibodies, rabbit cholesterol-fed atherosclerosis model. The settings on record: twelve vaccinated rabbits (Groups I and II), 100 μg peptide in RIBI adjuvant Days 0, 28, 49. For orientation: ELISA stands for enzyme-linked immunosorbent assay.
The target of experiment [3] is peptide derived from the endogenous rabbit CETP sequence (Oryctolagus cuniculus, UniProt P22687). In words: Direct ELISA for autoreactive anti-rabbit (endogenous) CETP antibodies, rabbit atherosclerosis model. The settings on record: twelve vaccinated rabbits (Groups I and II), three weeks post final boost, before cholesterol diet.

Turning to “CQYIKANSKFIGITEFGFPEHLLVDFLQSLS”, the “production of anti-CETP antibody specific for recombinant human CETP” value was “all of the rabbits (rb#1-rb#3) of Group I produced anti-CETP antibody” at recombinant human CETP [1] and “five of the twelve vaccinated rabbits” at recombinant human CETP [2]. For the same sequence, the “production of antibodies that reacted with the peptide derived from the endogenous rabbit CETP sequence” value in experiment [3] was “six of the twelve vaccinated animals”.
